Test results as given in article PMC5384220, “Highly selective inhibition of histone demethylases by de novo macrocyclic peptides” (Nature Communications, 2017).
Several values for one entry are separate records, joined by “and”; a condition that tells them apart may be missing. Equal entries are not always repeated.

Protein sequences, listed by entry. Tags and fused reporters are not part of them. Lines headed by an entry give the natural chain unless they say otherwise; changes in a name come on top. Residues count along the entry.
UniProt O15054, 1141-1641: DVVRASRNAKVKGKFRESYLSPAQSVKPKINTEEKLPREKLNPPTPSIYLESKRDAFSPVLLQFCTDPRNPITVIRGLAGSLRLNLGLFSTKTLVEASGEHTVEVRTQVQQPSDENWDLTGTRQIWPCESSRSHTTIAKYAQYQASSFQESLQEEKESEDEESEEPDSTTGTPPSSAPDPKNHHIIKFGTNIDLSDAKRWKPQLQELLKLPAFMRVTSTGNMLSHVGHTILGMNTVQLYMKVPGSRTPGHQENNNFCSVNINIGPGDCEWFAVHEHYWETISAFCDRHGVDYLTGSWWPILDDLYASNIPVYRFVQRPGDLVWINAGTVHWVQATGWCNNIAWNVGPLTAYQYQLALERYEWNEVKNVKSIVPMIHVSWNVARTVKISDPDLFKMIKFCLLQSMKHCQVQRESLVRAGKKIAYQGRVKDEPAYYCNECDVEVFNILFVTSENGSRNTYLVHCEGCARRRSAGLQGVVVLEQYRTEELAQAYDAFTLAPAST
UniProt Q9GZT9: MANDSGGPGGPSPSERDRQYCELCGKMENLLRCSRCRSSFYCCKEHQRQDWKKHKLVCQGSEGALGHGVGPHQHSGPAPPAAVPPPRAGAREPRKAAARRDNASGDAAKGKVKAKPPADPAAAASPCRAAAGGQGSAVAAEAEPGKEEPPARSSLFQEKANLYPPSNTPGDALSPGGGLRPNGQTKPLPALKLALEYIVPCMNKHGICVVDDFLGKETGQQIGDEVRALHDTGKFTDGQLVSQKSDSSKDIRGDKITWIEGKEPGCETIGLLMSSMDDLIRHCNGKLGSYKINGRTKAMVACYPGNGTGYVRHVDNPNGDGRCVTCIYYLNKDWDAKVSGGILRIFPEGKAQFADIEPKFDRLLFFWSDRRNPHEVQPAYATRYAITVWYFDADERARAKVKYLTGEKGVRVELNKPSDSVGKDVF

Columns and labels:
Assay type in all cases: biochemical
[1] = target: T1, KDM4C (Homo sapiens, UniProt Q9H3R0); assay: AlphaScreen demethylase activity assay, KDM4C; conditions: read-out: IC50 KDM4C
T1 construct: KDM4C 1-366 E.coli; made in house; host or cells: E. coli
T1 sequence (Q9H3R0 1-366): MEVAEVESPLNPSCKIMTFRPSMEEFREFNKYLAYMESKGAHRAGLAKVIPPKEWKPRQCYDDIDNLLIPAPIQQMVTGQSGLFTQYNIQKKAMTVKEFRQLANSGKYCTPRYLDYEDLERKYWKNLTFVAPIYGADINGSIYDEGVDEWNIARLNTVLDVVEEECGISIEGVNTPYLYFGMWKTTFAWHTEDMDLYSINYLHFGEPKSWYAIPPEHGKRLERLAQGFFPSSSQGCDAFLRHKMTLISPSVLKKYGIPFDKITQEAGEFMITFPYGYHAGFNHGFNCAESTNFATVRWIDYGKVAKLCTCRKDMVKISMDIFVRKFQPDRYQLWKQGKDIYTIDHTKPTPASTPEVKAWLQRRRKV
Protocol: (§1) IC50 values for KDM2–6 were measured using an AlphaScreen assay as described. The appropriate KDM (5 μl) was pre-incubated with an inhibitor (0.1 μl in DMSO) or DMSO for 15 min before the addition of 5 μl mixture of biotinylated peptide substrates, 2OG, ferrous ammonium sulfate (1–10 μM final) and ascorbate (100 μM final) to initiate the demethylation reaction. The reaction was quenched with 5 μl of 30 mM EDTA at predetermined reaction times for each enzyme (initial rate). Demethylated product was detected by addition of 5 μl of AlphaScreen donor and acceptor beads (AlphaScreen General IgG Detection Kit, 0.02 mg ml^−1 final each) pre-incubated with antibody. The plates were read after 1 h incubation in a BMG Labtech Pherastar FS plate reader. Data were normalized to a no enzyme control and IC50 values were calculated using nonlinear regression curve fits using GraphPad Prism. Assay buffer (50 mM HEPES pH 7.5, BSA (0.1% w/v) and Tween-20 (0.01% v/v)) was used throughout, except for dilution of stock ferrous ammonium sulfate solutions where water was used. The enzyme, substrate and antibody concentrations used are described in Supplementary Table 3. A fluorescence-based LSD1 inhibitor screening assay kit (Cayman, 700120) was used for KDM1/LSD1 assay. Assays for prolyl hydroxylase domain 2 and factor inhibiting HIF using matrix-assisted laser desorption/ionization–time of flight MS were performed as previously described. Prism 5.0 (GraphPad) was used to generate and to fit dose–response curves. IC50 values were determined by plotting percentage inhibition versus compound concentration relative to positive (vehicle) and negative (no enzyme) controls, using normalized dose–response (variable slope) fit. The reported values are the mean of multiple experiments (n≥3). The formaldehyde dehydrogenase coupled KDM assay was used to determine the mode of inhibition, using 0.5 μM His-KDM4A1–359. Prism 5.0 (GraphPad) was used to fit in mix-mode inhibition, to determine the kinetic parameters. Binding constants for CPs and H3(1–15)K9me3 were measured using biolayer interferometry (OctetRed 384, ForteBio) in buffer (50 mM HEPES (pH 7.5), 150 mM NaCl, 10 μM ammonium iron(II) sulphate). His-KDM4A1–359-Bio (70 nM) was immobilized onto super streptavidin biosensor and subjected to different peptide concentrations in buffer. Data analysis was performed using ForteBio Data Aalysis (v6.4).
Construct Expression [E] / nM [2OG] / µM [Fe(II)] / µM Peptide / nM Peptide sequence Antibody Source […]
Supplementary Table 3. AlphaScreen assay parameters for 2OG oxygenases used for this study. The table was dapted from 10. Assays were performed at 2OG concentration near the 2OG Km values determined experimentally.11 All enzymes were expressed and purified as described.10-12

[2] = target: T2, KDM6B (Homo sapiens, UniProt O15054); assay: AlphaScreen demethylase activity assay, KDM6B; conditions: read-out: IC50 KDM6B
T2 construct: KDM6B 1141-1641 E.coli; made in house; host or cells: E. coli
Protocol: as §1, with “The reported values are the mean of multiple experiments (n≥3). The formaldehyde dehydrogenase coupled KDM assay was used to determine the mode of inhibition, using 0.5 μM His-KDM4A1–359. Prism 5.0 (GraphPad) was used to fit in mix-mode inhibition, to determine the kinetic parameters.” left out, “His-KDM4A1–359-Bio (70 nM) was immobilized onto super streptavidin biosensor and subjected to different peptide concentrations in buffer. Data analysis was performed using ForteBio Data Aalysis (v6.4).” left out
Supplementary Table 3. […] Assays were performed at 2OG concentration near the 2OG Km values determined experimentally.11 All enzymes were expressed and purified as described.10-12

[3] = target: PHD2 (Homo sapiens, UniProt Q9GZT9); assay: MALDI-TOF MS assay, PHD2; conditions: read-out: IC50 PHD2
Protocol: as §1, with “Prism 5.0 (GraphPad) was used to fit in mix-mode inhibition, to determine the kinetic parameters.” left out, “His-KDM4A1–359-Bio (70 nM) was immobilized onto super streptavidin biosensor and subjected to different peptide concentrations in buffer. Data analysis was performed using ForteBio Data Aalysis (v6.4).” left out

| Substance | IC50 [1] | IC50 [2] [µM] | IC50 [3] [mM] |
| --- | --- | --- | --- |
| DY(meV)YNTRSDAWRW(4FF)P(meC) [CP2.3] | 69 nM |  |  |
| DY(meV)YNTRSDAWRWY(meT)(meC) [CP2.2] | 274 nM |  |  |
| DYVYNTRSDAWRWYT(meC) [CP2.1] | 15 nM |  |  |
| DYVYNTRSGWRWYTC [CP2] | < 50 nM and 29 nM | 6.8 | > 1 |
| LYLKSRRSGLTWIPC [CP4] |  | 7.2 | > 1 |
| LYSKYTQSGVRWVC [CP5] | 123 nM | > 10 | > 1 |
